Laboratory results reported in patent publication US9822179B2, “Recombinant TNF ligand family member polypeptides with antibody binding domain and uses therefor” (UNIVERSITAT STUTTGART, priority 2011, dated 2017).

The chains behind the UniProt entries cited, without tags or fusion partners. Residues count along the entry.
UniProt P07724, 25-608: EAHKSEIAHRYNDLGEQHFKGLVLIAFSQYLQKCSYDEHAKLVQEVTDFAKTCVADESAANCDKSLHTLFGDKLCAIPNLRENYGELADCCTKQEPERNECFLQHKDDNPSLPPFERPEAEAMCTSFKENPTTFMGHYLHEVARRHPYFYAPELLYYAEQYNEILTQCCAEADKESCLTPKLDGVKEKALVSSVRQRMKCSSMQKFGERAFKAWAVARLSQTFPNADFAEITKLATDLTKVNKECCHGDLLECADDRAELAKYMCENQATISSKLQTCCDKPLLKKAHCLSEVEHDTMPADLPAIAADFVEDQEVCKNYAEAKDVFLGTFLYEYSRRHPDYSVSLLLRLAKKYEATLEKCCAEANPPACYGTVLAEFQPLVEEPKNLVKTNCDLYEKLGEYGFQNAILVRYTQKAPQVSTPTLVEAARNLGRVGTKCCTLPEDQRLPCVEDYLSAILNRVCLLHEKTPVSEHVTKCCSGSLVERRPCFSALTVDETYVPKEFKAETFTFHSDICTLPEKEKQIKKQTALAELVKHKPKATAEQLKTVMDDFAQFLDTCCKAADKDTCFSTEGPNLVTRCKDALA

Experiments:
[1] = test system: EGFR+ Huh-7 hepatocellular carcinoma cells; assay: EGFR-directed induction of cell death in Huh-7 cells, serial dilutions of protein, crystal violet; assay type: cell-based
Method: After 16 h, cell viability was determined using MTT staining (Colo 205) or crystal violet staining (Huh-7) and data were normalized using bortezomib-treated cells as control (mean SEM, n=3). (B) 1×10^4 Colo205 cells per well were grown in 96-well plates using medium with 0.1% FCS. […] (C) 1×10^4 Huh-7 cells per well were grown in 96-well plates and treated with 20 ng/ml bortezomib or with a combination of bortezomib and 10 μM zVADfmk.
After 16 h, cell viability was determined using crystal violet staining. […] The values for SEQ ID NO: 102 were plotted in both panels for comparison.
(§1) As a positive control, cells were killed with 0.25% Triton X-100. Cell death assays with Huh-7 and HepG2 cells were performed in the absence (FIG. 6, Jurkat cells) or presence of Bortezomib (FIG. 7, Huh-7: 250 ng/ml, FIG. 6, HepG2: 500 ng/ml, FIG. 18, Huh-7: 250 ng/ml), Selleck Chemicals, Houston, Tex.). Bortezomib was added 30 min prior incubation with the proapoptotic ligands to sensitize cells for the induction of cell death (FIGS. 6, 7). Alternatively, cells were preincubated for 30 min with the indicated concentrations of TRAIL fusion proteins followed by addition of serial dilutions of Bortezomib (FIG. 8). TRAIL only treated cells are shown in each panel for the applied TRAIL concentration (Bortezomib 0 ng/ml) (FIG. 8). After 16 h incubation, cell viability was determined either by crystal violet staining (Huh-7, HepG2) or the MTT method (Jurkat) (Wuest et al., 2002). In the latter case a lysis buffer consisting of 15% SDS in DMF/H2O (1:1), pH 4.5 (with […]) acetic acid) was used.

[2] = target: human serum albumin (HSA) (Homo sapiens, UniProt P02768); assay: Albumin binding assay by size exclusion chromatography, HSA; settings: 1 h at RT, equimolar HSA
Method: (§2) Both proteins were incubated for 1 h at RT with equimolar concentrations of human serum albumin (HSA) or mouse serum albumin (MSA) and subsequently separated by size exclusion chromatography. Thyroglobulin (669 kDa), apoferritin (443 kDa), -amylase (200 kDa), bovine serum albumin (67 kDa), carbonic anhydrase (29 kDa) and FLAG peptide (1 kDa) were used as standard proteins/peptides.

[3] = target: mouse serum albumin (MSA) (Mus musculus, UniProt P07724); assay: Albumin binding assay by size exclusion chromatography, MSA; settings: 1 h at RT, equimolar MSA
Method: as §2

[4] = test system: EGFR low/negative HepG2 cells; assay: Target-independent induction of cell death, HepG2, crystal violet; assay type: cell-based
Method: (§3) Cell viability was determined using crystal violet staining. Results from four independent experiments are shown (mean±S.E.M.). (B) Jurkat cells (1×10^5/well) were used for a similar experiment as described in (A). Jurkat cells were not sensitized. Results from three independent experiments are shown (mean±S.E.M.). Viability of Jurkat cells was determined using the MTT assay.
as §1

[5] = test system: Jurkat cells; assay: Target-independent induction of cell death, Jurkat, MTT assay; assay type: cell-based; settings: not sensitized; SEQ ID NO: 102 compared to KillerTRAIL
Method: as §3, §1

[6] = test system: Huh-7 hepatocellular carcinoma cells; assay: Cell death in Huh-7 cells, constant protein concentration, serial dilutions of Bortezomib; assay type: cell-based
Method: FIG. 8: EGFR-directed induction of cell death in Huh-7 hepatocellular carcinoma cells as in FIG. 7 with the exception that constant concentrations of the test proteins were used for preincubation (30 min), followed by addition of serial dilutions of Bortezomib. Control: Bortezomib alone. Results from three independent experiments are shown (mean±S.E.M.).
as §1

[7] = test system: EGFR+ Huh-7 cells; assay: Binding of scTRAIL fusion proteins to Huh-7 cells, flow cytometry with competition; settings: 2 μg/ml fusion protein
Method: (§4) “scFv” represents an anti-EGFR specific antibody fragment used for competition.
(§5) 5×10^5 cells were suspended in PBA buffer (PBS, 0.025% BSA, 0.02% sodium azide) and incubated for 1 h at 4° C. with the indicated scTRAIL fusion proteins (2 μg/ml). After washing the cells three times with PBA buffer, bound fusion proteins were detected by anti-human TRAIL mAb MAB687 (2.5 μg/ml, R&D Systems) and fluorescein isothiocyanate-labelled rabbit anti-mouse IgG Ab (1:200, Sigma-Aldrich), followed by three washing steps with PBA each. […] Expression of TRAIL receptors was detected by anti-TRAIL R1 mAb MAB347 and anti-TRAIL R2 mAb MAB6311 (4 μg/ml each, R&D Systems) in conjunction with anti-mouse IgG-FITC. EGFR expression was detected by a phycoerythrin-labelled anti-human EGFR mAb sc-101 (4 μg/ml, Santa Cruz Biotech., Santa Cruz, Calif.) (see FIG. 4).

[8] = test system: EGFR low/neg. HepG2 cells; assay: Binding of scTRAIL fusion proteins to HepG2 cells, flow cytometry with competition; settings: 2 μg/ml fusion protein
Method: as §4, §5

[9] = test system: Colo205 xenograft tumor; assay: Colo205 xenograft tumor model; settings: 8 daily i.p. injections of 0.45 nmol + bortezomib every second day

B1: SEQ ID NO: 126: dimeric EGFR-specific TRAIL fusion protein with albumin binding domain (ABD) at the C-terminus (protein)
chain: MDWTWRVFCLLAVAPGAHSLEASDYKDDDDKGAEVQLVESGGGLVQPGGSLRLSCAASGFSLTNYGVHWVRQAPGKGLEWLGVIWSGGNTDYNTPFTSRFTISRDNSKNTLYLQMNSLRAEDTAVYYCARALTYYDYEFAYWGQGTTVTVSSGGGGSDIQLTQSPSFLSASVGDRVTITCRASQSIGTNIHWYQQKPGKAPKLLIKYASESISGVPSRFSGSGSGTEFTLTISSLQPEDFATYYCQQNNNWPTTFGAGTKLEIKRAAAGNGTSNGTSEFTRGTSEETISTVQEKQQNISPLVRERGPQRVAAHITGTRGRSNTLSSPNSKNEKALGRKINSWESSRSGHSFLSNLHLRNGELVIHEKGFYYIYSQTYFRFQEEIKENTKNDKQMVQYIYKYTSYPDPILLMKSARNSCWSKDAEYGLYSIYQGGIFELKENDRIFVSVTNEHLIDMDHEASFFGAFLVGGGGSGGGSTSEETISTVQEKQQNISPLVRERGPQRVAAHITGTRGRSNTLSSPNSKNEKALGRKINSWESSRSGHSFLSNLHLRNGELVIHEKGFYYIYSQTYFRFQEEIKENTKNDKQMVQYIYKYTSYPDPILLMKSARNSCWSKDAEYGLYSIYQGGIFELKENDRIFVSVTNEHLIDMDHEASFFGAFLVGGGGSGGGSTSEETISTVQEKQQNISPLVRERGPQRVAAHITGTRGRSNTLSSPNSKNEKALGRKINSWESSRSGHSFLSNLHLRNGELVIHEKGFYYIYSQTYFRFQEEIKENTKNDKQMVQYIYKYTSYPDPILLMKSARNSCWSKDAEYGLYSIYQGGIFELKENDRIFVSVTNEHLIDMDHEASFFGAFLVGGGSGGQHDEAVDANSLAEAKVLANRELDKYGVSDYYKNLINNAKTVEGVKALIDEILAALP
modifications: VH-VL(EGFR)-Glyco-scTrail-ABD
Question: For B1, which “bioactivity compared to SEQ ID NO: 102” value ([1]; 250 ng/ml bortezomib, 16 h) is on record?
Answer: bioactivity comparable to the dimeric TRAIL fusion protein lacking an ABD

Question: What about the albumin binding [2] of the same molecule?
Answer: verified

Question: And the albumin binding [3]?
Answer: verified

B2: SEQ ID NO: 96: EGFR-specific VH-VL-scTRAIL fusion protein, (GGGGS)3 linker L between VH and VL, FLAG tag; monomeric (protein)
chain: MDWTWRVFCLLAVAPGAHSLEASDYKDDDDKGAEVQLVESGGGLVQPGGSLRLSCAASGFSLTNYGVHWVRQAPGKGLEWLGVIWSGGNTDYNTPFTSRFTISRDNSKNTLYLQMNSLRAEDTAVYYCARALTYYDYEFAYWGQGTTVTVSSGGGGSGGGGSGGGGSDIQLTQSPSFLSASVGDRVTITCRASQSIGTNIHWYQQKPGKAPKLLIKYASESISGVPSRFSGSGSGTEFTLTISSLQPEDFATYYCQQNNNWPTTFGAGTKLEIKRAAAEFTRGTSEETISTVQEKQQNISPLVRERGPQRVAAHITGTRGRSNTLSSPNSKNEKALGRKINSWESSRSGHSFLSNLHLRNGELVIHEKGFYYIYSQTYFRFQEEIKENTKNDKQMVQYIYKYTSYPDPILLMKSARNSCWSKDAEYGLYSIYQGGIFELKENDRIFVSVTNEHLIDMDHEASFFGAFLVGGGGSGGGSTSEETISTVQEKQQNISPLVRERGPQRVAAHITGTRGRSNTLSSPNSKNEKALGRKINSWESSRSGHSFLSNLHLRNGELVIHEKGFYYIYSQTYFRFQEEIKENTKNDKQMVQYIYKYTSYPDPILLMKSARNSCWSKDAEYGLYSIYQGGIFELKENDRIFVSVTNEHLIDMDHEASFFGAFLVGGGGSGGGSTSEETISTVQEKQQNISPLVRERGPQRVAAHITGTRGRSNTLSSPNSKNEKALGRKINSWESSRSGHSFLSNLHLRNGELVIHEKGFYYIYSQTYFRFQEEIKENTKNDKQMVQYIYKYTSYPDPILLMKSARNSCWSKDAEYGLYSIYQGGIFELKENDRIFVSVTNEHLIDMDHEASFFGAFLVG
modifications: VH-VL(EGFR)-scTRAIL fusion protein
notes: EGFR-specific VH-VL-scTRAIL fusion protein, (GGGGS)3 linker L between VH and VL, FLAG tag; monomeric
Question: With B2 as the molecule, how does the “influence of excess Cetuximab on apoptosis inducing activity” value ([4]; 70 nM Cetuximab, at least 7-fold excess) read?
Answer: not influenced

Question: What about the “bioactivity on target negative cells, comparison in words” value ([4]; comparator named in value) of the same molecule?
Answer: did not differ from the one of SEQ ID NO: 104

Question: And the “apoptosis-inducing activity on Jurkat cells” value [5]?
Answer: no reactivity

Question: What about the “apoptosis-inducing activity compared to scTRAIL (SEQ ID NO: 104)” value ([1]; 250 ng/ml Bortezomib) of the same molecule?
Answer: tenfold

Question: What about the “synergy with Bortezomib” value ([6]; protein concentration of 0.05 nM) of the same molecule?
Answer: able to synergize with Bortezomib

Question: And the “induction of apoptosis when sensitized with Bortezomib” value ([6]; protein concentration of 1 nM and above)?
Answer: nearly equally efficient in induction of complete apoptosis

Question: What about the “binding to Huh-7 cells, competition by excess of anti-EGFR specific antibody fragment” value [7] of the same molecule?
Answer: partially blockable

Question: What about the “binding to HepG2 cells, competition by anti-EGFR huC225” value [8] of the same molecule?
Answer: weaker and non-blockable binding

B3: SEQ ID NO: 97: variant of SEQ ID NO: 96 whose linker X comprises two N-glycosylation sites; monomeric glycosylated, monovalent TRAIL fusion protein (protein)
chain: MDWTWRVFCLLAVAPGAHSLEASDYKDDDDKGAEVQLVESGGGLVQPGGSLRLSCAASGFSLTNYGVHWVRQAPGKGLEWLGVIWSGGNTDYNTPFTSRFTISRDNSKNTLYLQMNSLRAEDTAVYYCARALTYYDYEFAYWGQGTTVTVSSGGGGSGGGGSGGGGSDIQLTQSPSFLSASVGDRVTITCRASQSIGTNIHWYQQKPGKAPKLLIKYASESISGVPSRFSGSGSGTEFTLTISSLQPEDFATYYCQQNNNWPTTFGAGTKLEIKRAAAGNGTSNGTSEFTRGTSEETISTVQEKQQNISPLVRERGPQRVAAHITGTRGRSNTLSSPNSKNEKALGRKINSWESSRSGHSFLSNLHLRNGELVIHEKGFYYIYSQTYFRFQEEIKENTKNDKQMVQYIYKYTSYPDPILLMKSARNSCWSKDAEYGLYSIYQGGIFELKENDRIFVSVTNEHLIDMDHEASFFGAFLVGGGGSGGGSTSEETISTVQEKQQNISPLVRERGPQRVAAHITGTRGRSNTLSSPNSKNEKALGRKINSWESSRSGHSFLSNLHLRNGELVIHEKGFYYIYSQTYFRFQEEIKENTKNDKQMVQYIYKYTSYPDPILLMKSARNSCWSKDAEYGLYSIYQGGIFELKENDRIFVSVTNEHLIDMDHEASFFGAFLVGGGGSGGGSTSEETISTVQEKQQNISPLVRERGPQRVAAHITGTRGRSNTLSSPNSKNEKALGRKINSWESSRSGHSFLSNLHLRNGELVIHEKGFYYIYSQTYFRFQEEIKENTKNDKQMVQYIYKYTSYPDPILLMKSARNSCWSKDAEYGLYSIYQGGIFELKENDRIFVSVTNEHLIDMDHEASFFGAFLVG
modifications: N-glycosylated; VH-VL(EGFR)-scTRAIL fusion protein with glycosylation motif
Question: What does the source list for B3?
Answer: bioactivity in relation to SEQ ID NO: 96 ([1]; 250 ng/ml Bortezomib): identical bioactivity; effect on tumor growth [9]: delayed tumor growth; regression of tumors [9]: did not induce regression of tumors
